Measured values taken from article PMC5823691 (Journal of medicinal chemistry, 2017).

Sequences of proteins named here, by UniProt entry; tags and fusion partners are left off. Residues count along the entry.
UniProt P29965, 113-261 limits assumed: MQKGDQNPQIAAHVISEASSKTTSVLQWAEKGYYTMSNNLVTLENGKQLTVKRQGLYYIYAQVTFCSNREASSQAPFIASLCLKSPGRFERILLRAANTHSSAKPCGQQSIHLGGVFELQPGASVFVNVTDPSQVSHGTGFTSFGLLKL

Each compound was assayed against human CD40–CD40L interaction (Homo sapiens, UniProt P29965). Settings: binding free energy per non-hydrogen atom.

SMILES | ligand efficiency (LE)
O=C(Nc1ccc(-c2ccc(C(=O)Nc3cccc4cccc(S(=O)(=O)O)c34)cc2)cc1)c1ccc([N+](=O)[O-])cc1 [Compound 6, 8-(4’-(4-Nitrobenzamido)biphenyl-4-ylcarboxamido)naphthalene-1-sulfonic acid] | 0.91–0.93 kJ/atom
COC(=O)c1ccc(C(=O)Nc2ccc(-c3ccc(C(=O)Nc4cccc5cccc(S(=O)(=O)O)c45)cc3)cc2)cc1 [Compound 10, 8-(4’-(4-(Methoxycarbonyl)benzamido)biphenyl-4-ylcarboxamido)naphthalene-1-sulfonic acid] | 0.91–0.93 kJ/atom
O=C(Nc1ccc(-c2ccc(C(=O)Nc3ccc(C(=O)O)c4ccccc34)cc2)cc1)c1ccc([N+](=O)[O-])cc1 [Compound 11, 4-(4’-(4-Nitrobenzamido)biphenyl-4-ylcarboxamido)-1-naphthoic acid] | 0.91–0.93 kJ/atom
